For orientation: Ki means a measure of affinity in units of concentration, obtained from inhibition or displacement. Higher therefore signals weaker binding.

Our source for the Ki values is BindingDB's records for doi:10.1016/S0960-894X(97)00333-8 (Gilead Sciences, 1997).

This experiment has as its target Hemagglutinin (Influenza A virus (A/Shandong/9/1993(H3N2)), UniProt Q6DM53). The settings on record: pH 6.5; 37 °C.

`CC(=O)N[C@H]1[C@H]([C@H](O)[C@H](O)CO)OC(C(=O)O)=C[C@@H]1N=C(N)N` [(2R,3R,4S)-4-carbamimidamido-3-acetamido-2-[(1R,2R)-1,2,3-trihydroxypropyl]-3,4-dihydro-2H-pyran-6-carboxylic acid] yielded a Ki of 1 nM.
